Laboratory results from PMC12277127 (Nucleic Acids Research, 2024).

Target: T1, mono-ubiquitin (human, UniProt P0CG48 1-76)
T1 construct: ubiquitin, human (hUb), the 76-residue mature protein cut from a polyubiquitin or fusion precursor; source: E. coli BL21(DE3), purified (tag-free from pGEX-6P1-hUb, or His-tagged from pNIC28-Ub)
Test: SPR; SPRTN PIP-UBZ amine-coupled to a CM5 chip (~1000 RU); analytes monoUb, PCNA, monoUb-PCNA; 50 mM HEPES pH 7.4, 50 mM NaCl, 0.5 mM TCEP-HCl; steady-state affinity model
Conditions: both partners purified

Kd: 4.2 ± 0.9 µM
B1: SPRTN PIP-UBZ (320-489) (domain or fragment, human, UniProt Q9H040 320-489, looked up)
chain: VSNSHQNVLSNYFPRVSFANQKAFRGVNGSPRISVTVGNIPKNSVSSSSQRRVSSSKISLRNSSKVTESASVMPSQDVSGSEDTFPNKRPRLEDKTVFDNFFIKKEQIKSSGNDPKYSTTTAQNSSSSSSQSKMVNCPVCQNEVLESQINEHLDWCLEGDSIKVKSEESL
notes: SPRTN, human, PIP box to UBZ, residues 320-489; plasmid pCold I-SPRTN-PIP-UBZ (320-489); Its purification is not described; amine-coupled to a CM5 chip for SPR
